{"sequences": {"note": "Protein sequences, listed by entry. Tags and fused reporters are not part of them. Residues count along the entry.", "UniProt P36544, 23-502": "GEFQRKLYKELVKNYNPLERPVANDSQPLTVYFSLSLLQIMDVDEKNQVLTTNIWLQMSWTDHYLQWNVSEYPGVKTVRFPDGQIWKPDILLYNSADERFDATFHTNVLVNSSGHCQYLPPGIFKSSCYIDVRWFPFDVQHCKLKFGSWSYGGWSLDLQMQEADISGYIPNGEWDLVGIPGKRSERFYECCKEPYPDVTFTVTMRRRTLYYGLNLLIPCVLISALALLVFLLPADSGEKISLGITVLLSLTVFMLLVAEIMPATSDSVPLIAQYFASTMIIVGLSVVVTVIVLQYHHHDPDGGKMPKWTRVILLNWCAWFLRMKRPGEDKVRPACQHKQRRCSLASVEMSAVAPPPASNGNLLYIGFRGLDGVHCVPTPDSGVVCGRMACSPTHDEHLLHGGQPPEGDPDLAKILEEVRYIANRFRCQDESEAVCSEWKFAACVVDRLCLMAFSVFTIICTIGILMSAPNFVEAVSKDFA"}, "source": "paper PMC3882203", "about": "(Bioorganic & medicinal chemistry letters, 2013)", "biological_target": "α7 nicotinic acetylcholine receptor (α7 nAChR) (Homo sapiens, UniProt P36544)", "data": [{"smiles": "CCN1C[C@]2(COC(=O)c3ccccc3N3C(=O)C[C@H](C)C3=O)CC[C@H](OC)[C@@]34[C@@H]5C[C@H]6[C@H](OC)[C@@H]5[C@](O)(C[C@@H]6OC)[C@](O)([C@@H](OC)[C@H]23)[C@@H]14", "note": "[MLA]", "values": [{"measurement": "% block at 100 nM", "result": 100}]}]}
